Data set [1] is described as follows: Transdermal effect test (Franz cell method). The following applies: 3 wt% aqueous solution, mouse skin, PBS pH ≈ 7.4, 32 °C.
In a further data set the test system is Human melanocytes. Nature of the data set: Cytotoxicity detection (MTT, cell viability). The following applies: 24 h.
A further data set concerns human skin. Nature of the data set: Human skin closed patch test. The following applies: 3 wt% aqueous solution; for Number of persons with different skin reaction grades in the patch test: 0: grade 0 (Negative reaction); for Number of persons with different skin reaction grades in the patch test: 0 / Number of persons with different skin reaction grades in the patch test: 1 / Number of persons with different skin reaction grades in the patch test: 2 / Number of persons with different skin reaction grades in the patch test: 3 / Number of persons with different skin reaction grades in the patch test: 4: 40 subjects; for Number of persons with different skin reaction grades in the patch test: 1: grade 1 (Doubtful reaction); for Number of persons with different skin reaction grades in the patch test: 2: grade 2 (Weakly positive reaction); for Number of persons with different skin reaction grades in the patch test: 3: grade 3 (Strongly positive reaction); for Number of persons with different skin reaction grades in the patch test: 4: grade 4 (Extremely strong positive reaction).

With `COc1ccc(C(=O)[O-])c(O)c1.[K+]`, the “Permeation amount per unit area (µg/cm^2)” value in data set [1] (2h) worked out at 6.57 µg/cm^2; in data set [1] (5h), 84.32 µg/cm^2; in data set [1] (21h), 500.79 µg/cm^2; in data set [1] (24h), 841.36 µg/cm^2. The “Cell viability (%) Mean” value in the data set with Human melanocytes (0.0195 mg/mL) turned out to be 95.25%; with Human melanocytes (0.0391 mg/mL) it was 94.25%; in the data set with Human melanocytes (0.0781 mg/mL), 90.10%; in the data set on Human melanocytes (0.1563 mg/mL), 85.17%; in the data set with Human melanocytes (0.3125 mg/mL), 82.32%; in the data set with Human melanocytes (0.625 mg/mL), 80.43%.
For the compound `NC[C@H]1CC[C@H](C(=O)O)CC1`, the “Permeation amount per unit area (µg/cm^2)” value in data set [1] (2h) is given as 10.96 µg/cm^2; in data set [1] (5h), 113.29 µg/cm^2; in data set [1] (21h), 1132.54 µg/cm^2; in data set [1] (24h), 1354.74 µg/cm^2.
Consider “supramolecular 4-methoxysalicylic acid tranexamic acid ionic salt”, for which the “Permeation amount per unit area (µg/cm^2)” value is reported as 12.34 µg/cm^2 in data set [1] (2h, listed as Experimental Example 1); 11.39 µg/cm^2 in data set [1] (2h, listed as Experimental Example 2); 123.46 µg/cm^2 in data set [1] (5h, listed as Experimental Example 1); 115.63 µg/cm^2 in data set [1] (5h, listed as Experimental Example 2); 1759.46 µg/cm^2 in data set [1] (21h, listed as Experimental Example 1); 1345.67 µg/cm^2 in data set [1] (21h, listed as Experimental Example 2). Moreover, the “Permeation amount per unit area (µg/cm^2)” value in data set [1] (24h, listed as Experimental Example 1) was determined as 2230.47 µg/cm^2; in data set [1] (24h, listed as Experimental Example 2), 1852.64 µg/cm^2. The “Cell viability (%) Mean” value in the data set with Human melanocytes (0.0195 mg/mL) worked out at 102.68%; in the data set with Human melanocytes (0.0391 mg/mL), 100.36%; in the data set with Human melanocytes (0.0781 mg/mL) it was 96.94%; in the data set with Human melanocytes (0.1563 mg/mL), 95.46%; in the data set with Human melanocytes (0.3125 mg/mL), 94.16%; in the data set with Human melanocytes (0.625 mg/mL) it was 88.49%. Further, the “Number of persons with different skin reaction grades in the patch test: 0” value in the data set on human skin (0.5h after removal), in the data set on human skin (24h after removal) and in the data set on human skin (48h after removal) was 40 in each case. For the same compound, the “Number of persons with different skin reaction grades in the patch test: 1” value in the data set on human skin (0.5h after removal), with human skin (24h after removal) and in the data set on human skin (48h after removal) was 0 throughout. In addition, the “Number of persons with different skin reaction grades in the patch test: 2” value in the data set with human skin (0.5h after removal), with human skin (24h after removal) and in the data set with human skin (48h after removal) was 0 in each case. Besides, the “Number of persons with different skin reaction grades in the patch test: 3” value with human skin (0.5h after removal), in the data set with human skin (24h after removal) and in the data set with human skin (48h after removal) was 0 throughout. Besides, the “Number of persons with different skin reaction grades in the patch test: 4” value in the data set with human skin (0.5h after removal), in the data set with human skin (24h after removal) and in the data set with human skin (48h after removal) was 0 each time. Also, the “subjects with adverse skin reactions” value in the data set on human skin (of the 40 subjects, human skin closed patch test) amounted to 0.

For the origin of these results see patent EP4847483A1, “SUPRAMOLECULAR 4-METHOXYSALICYLIC ACID TRANEXAMIC ACID IONIC SALT, PREPARATION METHOD THEREFOR, AND USE THEREOF” (dated 2026).
